{"source": "PubChem BioAssay AID488", "about": "(PCMD, 2006)", "note": "This is a selection; strong and weak results do not stand in their true shares. Some of these compounds have results that are not shown, active ones among them. Active and inactive are the calls of the source. Rule as the data show it: active = inhibition above about 22% (passing the limit was not always enough); inconclusive = no clear call, values can overlap the other calls."}
{"molecular_target": "Cathepsin B (Homo sapiens) (UniProt P07858)", "test": "cathepsin B inhibitors from pooled compounds, primary screen, biochemical, compound mixtures, AMC fluorescence (AID 488);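 also: 0% = enzyme without compound and 100% = no enzyme blank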", "settings": "Purified cathepsin B, AMC dipeptide fluorescence, stronger effect = higher value,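 ten-compound pools at 5 µM per compound and 50 µM total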"}
{"smiles": "O=C(OC1CN2CCC1CC2)C(CO)(c1ccccc1)c1ccccc1", "note": "(configuration not stated)", "inhibition": "inactive: 4.68%"}
{"smiles": "CN(C)c1cccc(C(=O)NCC2(N(C)C)CCCCC2)c1", "inhibition": "inactive: 7.2%"}
